One substance from patent US11045480B2, “Anti-huLRRC15 antibody drug conjugates and methods for their use” (AbbVie Inc., priority 2015, dated 2021) can be followed below.

For test [1], the system named is SCC-15 head and neck cancer xenograft. Put plainly: SCC-15 xenograft tumor growth. It is filed as in vivo, mouse. Conditions: SCC-15, SCID mice; ADCs 12 mg/kg IP Q7D×6; cetuximab 3 mg/kg IP Q7D×3 (FIG. 22B). As to the method:
Radiation is a commonly used cytotoxic therapy in oncology. […] SCC-15 head and neck cancer cells (1 million) were implanted subcutaneously into SCID mice, and mice were randomized when the tumors reached ˜200 mm^3 and dosed with biologics at 12 mg/kg intraperitoneally on a Q4D×6 (one dose given every 4 days for a total of 6 doses), while the radiation was directed at the tumor with a single radiation dose of 15 Gy on day 0.
SCC-15 head and neck cancer cells (1 million) were implanted subcutaneously into SCID mice, and mice were randomized when the tumors reached ˜200 mm^3 and dosed with biologics at 12 mg/kg intraperitoneally on a Q7D×6 (one dose given every 7 days for a total of 6 doses), while carboplatin was dosed intraperitoneally […] at 50 mg/kg Q4D×4 (one dose given every 4 days for a total of 4 doses).

For test [2], the system named is HN5 (head and neck) xenograft. Put plainly: HN5 xenograft tumor growth. It is filed as in vivo, mouse. Conditions: HN5, NSG mice; ADC 4.5 mg/kg IP Q4D×6; erlotinib 150 mg/kg orally daily ×10; cetuximab 3 mg/kg IP Q7D×3 (FIG. 20B). The procedure:
In FIG. 20B, HN5 cells (5 million) were implanted subcutaneously into NSG mice, and mice were randomized when the tumor group mean volumes reached ˜200 mm^3 and dosed with isotype mAb or ADCs at 4.5 mg/kg intraperitoneally on a Q4D×6 (one dose given every 4 days for a total of 6 doses), while erlotinib was dosed orally daily for 10 days at 150 mg/kg, and cetuximab was dosed intraperitoneally Q7D×3 (one dose given every 7 days for a total of 3 doses) at 3 mg/kg.

As to cetuximab [reference compound], in test [1], the “TGD, single agent” value is 58% and the “TGImax, single agent” value was determined as 66%. Besides, in test [2], the TGD was determined as 59% and the TGImax was 73%.
